Source: ChEMBL document CHEMBL2331439 (J Med Chem, 2013)

Target: RAF proto-oncogene serine/threonine-protein kinase (Homo sapiens, UniProt P04049)
Test: Inhibition of recombinant RAF1 (unknown origin) by cascade reaction assay

- IC50: 6.5 µM
SMILES: CN1C/C(=C\c2ccccn2)C(=O)/C(=C/c2ccccn2)C1
